The structures appear in SMILES notation.

This note sets out measurements from ChEMBL document CHEMBL1136757 (J Med Chem, 2003).

A short description of the assay: In vitro inhibitory activity against sorbitol dehydrogenase (SD) from sheep liver; Not active.

Turning to `Cc1ccc(CN2C(=O)C(C(C#N)C(=O)O)c3cc(F)ccc32)cc1` (stereo unspecified), the IC50 result is “Not Active”.
